PMC6327999, “Hydroxyl-substituted double Schiff-base condensed 4-piperidone/cyclohexanones as potential anticancer agents with biological evaluation” (Journal of Enzyme Inhibition and Medicinal Chemistry, 2019)

What was measured:
Assay type in all cases: cell-based
[1] = system: human lung carcinoma cells (A549); assay: Cytotoxicity, MTT assay, A549; settings: quotient of the IC50 values towards nonmalignant LO2 cells
Excerpt: (§1) Compounds 2a–d, 3a–e, 4a–e, 5a–d, and 6a–c were screened against human neoplastic cell lines such as human lung carcinoma cells (A549), human gastric adenocarcinoma cells (SGC7901), human cervical carcinoma cells (HeLa), human liver hepatocellular carcinoma cell line (Hepg2), human chronic myelogenous leukemia cell line (K562), human acute mononuclear granulocyte leukemia (THP-1), human normal heptical cell line (LO2) (Table 1) using modified MTT assay (3-(4,5-dimethyl-2-thiazolyl)-2,5-diphenyl-2-H-tetrazolium bromide, MTT, Dojindo Laboratories, Tokyo, Japan). All cell lines were maintained at 37 °C in a humidified 5% CO2 and 95% air atmosphere. The HePG2 cell lines were cultured in DMEM containing 10% fetal bovine serum. Other cell lines were grown in medium 1640 and supplemented with 10% fetal bovine serum. The tested compounds and positive controls (Doxorubicin and Curcumin) were initially dissolved in dimethylsulfoxide (DMSO), and then the solutions were diluted 1:1000 in DMEM medium or 1640 medium, which final concentration of DMSO was always 0.1% (v/v). Controls were prepared with 0.1% DMSO (v/v) only. […] The optical density (OD) was measured by a multi-well plate reader (TECAN, Männedorf, Switzerland) at 570 nm. The results are expressed as a decrease in the cell viability (%) in comparison to untreated controls. […]

[2] = system: human gastric adenocarcinoma cells (SGC7901); assay: Cytotoxicity, MTT assay, SGC7901; settings: quotient of the IC50 values towards nonmalignant LO2 cells
Excerpt: as §1

[3] = system: human chronic myelogenous leukemia cell line (K562); assay: Cytotoxicity, MTT assay, K562; settings: quotient of the IC50 values towards nonmalignant LO2 cells
Excerpt: as §1

[4] = system: human carcinoma cell lines A549, SGC7901, HePG2, HeLa, K562, THP-1; assay: Cytotoxicity, MTT assay, panel of human carcinoma cell lines (average / overall); settings: average over the six carcinoma cell lines
Excerpt: as §1, with “serum.” for “serum. The tested compounds and positive controls (Doxorubicin and Curcumin) were initially dissolved in dimethylsulfoxide (DMSO), and then the solutions were diluted 1:1000 in DMEM medium or 1640 medium, which final concentration of DMSO was always 0.1% (v/v). Controls were prepared with 0.1% DMSO (v/v) only.”
The cytotoxicity activities against human carcinoma cell lines A549, SGC7901, HePG2, HeLa, K562, THP-1 and cytotoxicity toward LO2 cell lines were evaluated by MTT method. […]

[5] = system: human cervical carcinoma cells (HeLa); assay: Cytotoxicity, MTT assay, HeLa; settings: quotient of the IC50 values towards nonmalignant LO2 cells
Excerpt: as §1

[6] = system: human liver hepatocellular carcinoma cell line (Hepg2); assay: Cytotoxicity, MTT assay, HePG2; settings: quotient of the IC50 values towards nonmalignant LO2 cells
Excerpt: as §1

[7] = system: human acute mononuclear granulocyte leukemia (THP-1); assay: Cytotoxicity, MTT assay, THP-1; settings: quotient of the IC50 values towards nonmalignant LO2 cells
Excerpt: as §1

COc1cccc2c1C(=O)c1c(O)c3c(c(O)c1C2=O)C[C@@](O)(C(=O)CO)C[C@@H]3O[C@H]1C[C@H](N)[C@H](O)[C@H](C)O1 [DOX, Doxorubicin, reference compound]
A549 SI [1]: 1.6 | SGC7901 SI [2]: 0.9 | K562 SI [3]: 3.9 | Ave SI [4]: 5.4 | HeLa SI [5]: 2.9 | HePG2 SI [6]: 10.4 | THP-1 SI [7]: 12.8
